# scFv variants of Ab-95 (light chain) against a SARS-CoV-2 spike peptide

Data: MIT Lincoln Laboratory AlphaSeq set, Engelhart et al. 2022, doi:10.1038/s41597-022-01779-4, as distributed in FLAb.

Antigen: PDVDLGDISGINAS, a 14-residue peptide of the SARS-CoV-2 spike HR2 region.

Ab-95 is the parent antibody, in scFv form: VH, then a (GGGGS)3 linker, then VL. The heavy chain is unchanged in all variants.
VH: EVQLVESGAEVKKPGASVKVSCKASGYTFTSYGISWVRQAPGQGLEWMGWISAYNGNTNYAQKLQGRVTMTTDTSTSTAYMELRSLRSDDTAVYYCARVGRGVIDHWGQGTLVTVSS
VL: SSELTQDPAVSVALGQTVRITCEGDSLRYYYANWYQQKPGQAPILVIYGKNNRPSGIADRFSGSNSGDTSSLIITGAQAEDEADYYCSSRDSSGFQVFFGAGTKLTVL

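The parent was found by panning a naive human phage display library on the peptide. In library AAYL52, one, two or three CDR residues were substituted; doubles and triples were drawn at random. AlphaSeq pools MATa yeast showing the antibodies with MATalpha yeast showing the peptide. The frequency of each diploid, read from paired DNA barcodes, reflects how well the two displayed proteins bind. Each replicate has its own calibration line, from reference interactions of the BCL2 family. Each pool was mated in three replicate cultures.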

Variants are written as CDR1, CDR2 and CDR3 of the light chain (limits as in the source). Parent: EGDSLRYYYAN, GKNNRPS, SSRDSSGFQVF. Values are apparent Kd, the geometric mean of the replicates that gave a signal; lower means stronger binding. A pair that was not seen in any replicate is written "nd"; this usually means weak binding, but a binder can also be missed. As a blank, each scFv also met three strains without target: over library AAYL52, 28% of these pairings were detected, typically at 8.2 µM and seldom below 800 nM. Also given: how often the same scFv was detected with the empty control strains. For reference, the parent read 200 nM as the reference entry and 180 nM as a member of this library.

For EGDSLRYYYAN / DKNNRPS / SSRDQSGFQFF, the assay gave 100 nM (3 of 3 replicates; controls 1 of 9).
For MGDSLRYYDAN / GKNIRPS / SSRDSSGFQVF, the assay gave 24 nM (3 of 3 replicates; controls 5 of 9).
For EGDSLRYYYAN / GKNNRPS / SSRDMRGFDVF, the assay gave 99 nM (3 of 3 replicates; controls 4 of 9).
For EGDSLRYYEQN / GKNNRPS / SSRDSSRFQVF, the assay gave nd (0 of 3 replicates; controls 2 of 9).
For EGDSLRDYYAN / GKNNRES / SSRDSSGMQVF, the assay gave 950 nM (3 of 3 replicates; controls 1 of 9).
For EGDSLDYYYAN / GKNNRPL / SSRDSSGQQVF, the assay gave 280 nM (3 of 3 replicates; controls 3 of 9).
For EGDVLRYYYAN / GKNNRPI / SSRDVSGFQVF, the assay gave 4.0 µM (3 of 3 replicates; controls 2 of 9).
For EGDCLRYYYAN / GKNNRPS / SSCDSSGFQVC, the assay gave 4.1 µM (2 of 3 replicates; controls 3 of 9).
For EGDSGRYYYAN / FKNNRPS / SSRRSSGFQVF, the assay gave 54 µM (1 of 3 replicates; controls 5 of 9).
For EVDSLRYYYAN / GKNNRPS / HSRDTSGFQVF, the assay gave 16 µM (1 of 3 replicates; controls 2 of 9).
For EGGSPRYYYAN / GKNNRPS / SSRDSSEFQVF, the assay gave 75 µM (2 of 3 replicates; controls 5 of 9).
For EGDSLRYYYAN / GKNNRPS / SSTDWSGFFVF, the assay gave 1.5 µM (2 of 3 replicates; controls 2 of 9).
For EGDSLRYYYAN / RKANRPS / SSRDSSGFQVK, the assay gave nd (0 of 3 replicates; controls 1 of 9).
For EGDSLRIYYAN / GKYNRPS / ESRDSSGFQVF, the assay gave 130 µM (2 of 3 replicates; controls 5 of 9).
For EGDSLRYYYAN / GKNFRPS / SFRDSSRFQVF, the assay gave 17 µM (2 of 3 replicates; controls 2 of 9).
For EGDSLRYYAAC / GKNNRPS / RSRDSSGFQVF, the assay gave 19 µM (3 of 3 replicates; controls 6 of 9).
For EGDSHRYYYAN / AKNNRPS / SSRDSSGFQVF, the assay gave nd (0 of 3 replicates; controls 4 of 9).
For EGHSLRYYYAH / GKNGRPS / SSRDSSGFQVF, the assay gave nd (0 of 3 replicates; controls 1 of 9).
For EWDSLRYYYAN / GFVNRPS / SSRDSSGFQVF, the assay gave 31 µM (2 of 3 replicates; controls 3 of 9).
For EGDSSRYYYAN / GKNERPS / SSRDSSGFQVE, the assay gave nd (0 of 3 replicates; controls 1 of 9).
For EGDSLRYYYAE / GKNNRPS / SSRLSSGFQLF, the assay gave nd (0 of 3 replicates; controls 4 of 9).
For EGDSLFIYYAN / GKNNRPS / SSRDSSGFQVF, the assay gave 1.1 µM (3 of 3 replicates; controls 5 of 9).
For EKDSLVYYNAN / GKNNRPS / SSRDSSGFQVF, the assay gave 1.6 µM (3 of 3 replicates; controls 2 of 9).
For EGDSLRYYYAN / QKNNRPS / STRDSSGKQVF, the assay gave 1.2 µM (1 of 3 replicates; controls 0 of 9).
For EGDDLRYYYAN / FKNNRPS / SSRDSSGFQVF, the assay gave 19 µM (3 of 3 replicates; controls 6 of 9).
For EGDDLRYGYAN / GKNNRPS / SSVDSSGFQVF, the assay gave 3.3 µM (1 of 3 replicates; controls 2 of 9).
For EGDSCRYYYAN / GKNNRDS / SSRDTSGFQVF, the assay gave 25 µM (2 of 3 replicates; controls 2 of 9).
For EGDSLRYYYAN / GMNMHPS / SSRDSSGFQVF, the assay gave 620 nM (3 of 3 replicates; controls 2 of 9).
For EGDSLRYYYAN / GKNRRPS / SSRDSSGRQVT, the assay gave 1.4 µM (2 of 3 replicates; controls 2 of 9).
For EGDSLRYYYAN / GKNNRPS / SWRWSSGFQVH, the assay gave 7.3 µM (1 of 3 replicates; controls 1 of 9).
For EGDSLKYYYAN / GKNNRFS / SSRDSSKFQVF, the assay gave 1.3 µM (3 of 3 replicates; controls 2 of 9).
For NGDSMRYYYAR / GKNNRPS / SSRDSSGFQVF, the assay gave 51 µM (2 of 3 replicates; controls 1 of 9).